Source: ChEMBL document CHEMBL1129215, “(Dipropylamino)-tetrahydronaphthofurans: centrally acting serotonin agonists and dopamine agonists-antagonists” (Bioorg Med Chem Lett, 1997)

The chains behind the UniProt entries cited, without tags or fusion partners.
UniProt P35462, whole entry: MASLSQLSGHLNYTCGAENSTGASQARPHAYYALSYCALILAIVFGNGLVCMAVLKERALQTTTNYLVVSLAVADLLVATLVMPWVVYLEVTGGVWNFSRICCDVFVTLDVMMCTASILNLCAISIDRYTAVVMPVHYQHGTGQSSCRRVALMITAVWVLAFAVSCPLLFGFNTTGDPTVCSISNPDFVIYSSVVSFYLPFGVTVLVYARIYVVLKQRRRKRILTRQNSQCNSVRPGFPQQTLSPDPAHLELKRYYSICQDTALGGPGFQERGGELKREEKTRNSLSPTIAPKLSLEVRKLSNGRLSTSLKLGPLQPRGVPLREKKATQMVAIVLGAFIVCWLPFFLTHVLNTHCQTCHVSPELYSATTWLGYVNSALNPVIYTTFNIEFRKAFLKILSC

Biological target: D(3) dopamine receptor (Homo sapiens, UniProt P35462)
Assay: biochemical

For `CCCN(CCC)C1CCc2c(O)cccc2C1` (stereo unspecified) [5-OH-DPAT], the pKi was 8.36.

pKi: −log10 of the molar value.
